{"sequences": {"note": "Sequences of proteins named here, by UniProt entry; tags and fusion partners are left off. A change or cut given only in a name is not applied to a line headed by its entry.", "UniProt Q9UGN5": "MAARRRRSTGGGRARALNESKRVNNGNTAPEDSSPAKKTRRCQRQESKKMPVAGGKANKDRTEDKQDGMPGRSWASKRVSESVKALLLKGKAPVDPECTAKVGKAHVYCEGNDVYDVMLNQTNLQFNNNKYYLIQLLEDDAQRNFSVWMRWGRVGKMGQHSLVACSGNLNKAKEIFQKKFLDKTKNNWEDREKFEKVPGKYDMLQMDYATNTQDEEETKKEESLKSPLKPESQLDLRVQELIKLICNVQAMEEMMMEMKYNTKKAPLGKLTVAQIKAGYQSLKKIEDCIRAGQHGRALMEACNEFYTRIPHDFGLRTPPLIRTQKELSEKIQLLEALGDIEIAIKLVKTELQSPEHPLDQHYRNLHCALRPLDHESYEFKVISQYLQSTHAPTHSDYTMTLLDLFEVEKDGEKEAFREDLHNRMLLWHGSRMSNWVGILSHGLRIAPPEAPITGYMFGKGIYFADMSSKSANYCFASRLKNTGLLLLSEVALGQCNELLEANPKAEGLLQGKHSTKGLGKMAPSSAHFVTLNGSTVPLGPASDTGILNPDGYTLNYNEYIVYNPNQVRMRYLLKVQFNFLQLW"}, "source": "patent US8765972B2", "about": "(priority 2009, dated 2014)", "target": "PARP-2 (Homo sapiens (Human), UniProt Q9UGN5)", "conditions": "read-out: KD, PARP-2 FL (compound P1); displacement, probe compound P1 50 nM, PARP-2 250 nM; average of three independent experiments"}
{"smiles": "CN(C)CC(=O)Nc1ccc2[nH]c(=O)c3ccccc3c2c1", "note": "[PJ34, N-(6-oxo-5,6-dihydro-phenanthridin-2-yl)-N,N-dimethylacetamide, reference compound]", "values": [{"measurement": "Kd", "result": "< 30", "unit": "nM"}]}
